In brackets after ≈: the same amount, converted by molar mass. Each block holds one compound with its values, some of them ahead of it.
Key:
MDA-MB-231 [1] = assay: cells; settings: Homo sapiens, MDA-MB-231, 72 h, read-out: INH
[2] = Kinetic solubility of the compound in PBS buffer at pH 7.4 measured by HPLC analysis
animal or person = settings: Mus musculus, MDA-MB-231, read-out: TGI
MDA-MB-231 [3] = assay: cells; settings: Homo sapiens, MDA-MB-231, 48 h, read-out: Activity
cells [4] = settings: Homo sapiens, MDA-MB-231, 48 h
MDA-MB-231 [5] = assay: cells; settings: Homo sapiens, MDA-MB-231, 48 h, read-out: Activity; remark: listed apart in the source
in vivo [6] = settings: female, BALB/c, mouse, ip, 5 mg/kg
in vivo [7] = settings: female, BALB/c, mouse, po, 10 mg/kg
HCC1806 [8] = assay: cells; settings: Homo sapiens, HCC1806, 48 h, read-out: Activity
HCC1806 [9] = assay: cells; settings: Homo sapiens, HCC1806, 48 h, read-out: Activity; remark: listed apart in the source
MDA-MB-231 [10] = assay: cells; settings: Homo sapiens, MDA-MB-231, 48 h, read-out: Activity; remark: listed apart in the source
in vivo [11] = settings: female, BALB/c, mouse, po, 10 mg/kg; remark: listed apart in the source
in vivo [12] = settings: female, BALB/c, mouse, po, 10 mg/kg; remark: listed apart in the source
MDA-MB-231 [13] = assay: cells; settings: Homo sapiens, MDA-MB-231, 72 h, read-out: INH; remark: listed apart in the source
[14] = In vivo antitumor activity against human MDA-MB-231 cells xenografted in female nude mouse assessed as tumor growth inhibition at 10 mg/kg, ip administered every other day relative to control; settings: MDA-MB-231, read-out: TGI
in vivo [15] = settings: female, BALB/c, mouse, iv, 5 mg/kg
cells [16] = settings: Homo sapiens, HCC1806, 48 h
HCC1806 [17] = assay: cells; settings: Homo sapiens, HCC1806, 48 h, read-out: Activity; remark: listed apart in the source
MDA-MB-231 [18] = assay: cells; settings: Homo sapiens, MDA-MB-231, 48 h, read-out: Activity; remark: listed apart in the source
in vivo [19] = settings: female, BALB/c, mouse, ip, 5 mg/kg; remark: listed apart in the source
HCC1806 [20] = assay: cells; settings: Homo sapiens, HCC1806, 48 h, read-out: Activity; remark: listed apart in the source
in vivo [21] = settings: female, BALB/c, mouse, ip, 5 mg/kg; remark: listed apart in the source
HCC1806 [22] = assay: cells; settings: Homo sapiens, HCC1806, 48 h, read-out: Activity; remark: listed apart in the source
Casein kinase I = assay: Inhibition of CK1 (unknown origin); format: protein assay, Homo sapiens
MDA-MB-231 [23] = assay: cells; settings: Homo sapiens, MDA-MB-231, 48 h, read-out: Activity; remark: listed apart in the source

solubility kinetic [2]: 238 µM (≈ 107 µg/mL)
Compound: Cc1ccc(-n2nc(C(=O)NCCN3CCCC3)c(=O)n(Cc3ccccc3)c2=O)cc1C
inhibition at 20 µM (MDA-MB-231 [1]): 99.1%

DC50 (cells [4]): 319 nM | half-life at 24 h (in vivo [6]): 2.1 h | bioavailability at 24 h (in vivo [7]): 1.5% | half-life at 24 h (in vivo [11]): 3.4 h | Cmax at 24 h (in vivo [12]): 14.9 ng/mL | solubility kinetic [2]: 27 µM (≈ 11.3 µg/mL) | Vd at 24 h (in vivo [15]): 49.6 L/kg | DC50 (cells [16]): 857 nM | Cmax at 24 h (in vivo [19]): 194 ng/mL | bioavailability at 24 h (in vivo [21]): 33.4% | IC50 (Casein kinase I): > 10000 nM
Compound: Cc1ccc(-n2nc(C(=O)N3CCCCC3)c(=O)n(Cc3ccccc3)c2=O)cc1C
inhibition in vivo at 5 mg/kg (animal or person): 44.8% | viability at 0.4 µM (MDA-MB-231 [3]): 33.5% | viability at 0.1 µM (MDA-MB-231 [5]): 73% | inhibition at 20 µM (MDA-MB-231 [1]): 90.5% | viability at 0.4 µM (HCC1806 [8]): 89% | viability at 0.8 µM (HCC1806 [9]): 87.3% | viability at 0.8 µM (MDA-MB-231 [10]): 28.3% | inhibition at 1 µM (MDA-MB-231 [13]): 98.2% | inhibition in vivo at 10 mg/kg [14]: 59.3% | viability at 0.05 µM (HCC1806 [17]): 94.4% | viability at 0.05 µM (MDA-MB-231 [18]): 87.9% | viability at 0.2 µM (HCC1806 [20]): 90.9% | viability at 0.1 µM (HCC1806 [22]): 93% | viability at 0.2 µM (MDA-MB-231 [23]): 51.7%

Source: ChEMBL document CHEMBL5579887, “Structure-Activity Relationship Studies of Substituted 2-Phenyl-1,2,4-triazine-3,5(2H,4H)-dione Analogues: Development of Potent eEF2K Degraders against Triple-Negative Breast Cancer” (J Med Chem, 2024)
